Biological target: thrombin

Work on “prourokinase (from UniProt P00749) (enzyme)” yielded a Thrombin Time of 33 s.

Source: patent publication US6133011
